In assay [1] the target is T1, Protein deacetylase HDAC6 (Homo sapiens) (UniProt Q9UBN7).
T1 sequence (whole entry): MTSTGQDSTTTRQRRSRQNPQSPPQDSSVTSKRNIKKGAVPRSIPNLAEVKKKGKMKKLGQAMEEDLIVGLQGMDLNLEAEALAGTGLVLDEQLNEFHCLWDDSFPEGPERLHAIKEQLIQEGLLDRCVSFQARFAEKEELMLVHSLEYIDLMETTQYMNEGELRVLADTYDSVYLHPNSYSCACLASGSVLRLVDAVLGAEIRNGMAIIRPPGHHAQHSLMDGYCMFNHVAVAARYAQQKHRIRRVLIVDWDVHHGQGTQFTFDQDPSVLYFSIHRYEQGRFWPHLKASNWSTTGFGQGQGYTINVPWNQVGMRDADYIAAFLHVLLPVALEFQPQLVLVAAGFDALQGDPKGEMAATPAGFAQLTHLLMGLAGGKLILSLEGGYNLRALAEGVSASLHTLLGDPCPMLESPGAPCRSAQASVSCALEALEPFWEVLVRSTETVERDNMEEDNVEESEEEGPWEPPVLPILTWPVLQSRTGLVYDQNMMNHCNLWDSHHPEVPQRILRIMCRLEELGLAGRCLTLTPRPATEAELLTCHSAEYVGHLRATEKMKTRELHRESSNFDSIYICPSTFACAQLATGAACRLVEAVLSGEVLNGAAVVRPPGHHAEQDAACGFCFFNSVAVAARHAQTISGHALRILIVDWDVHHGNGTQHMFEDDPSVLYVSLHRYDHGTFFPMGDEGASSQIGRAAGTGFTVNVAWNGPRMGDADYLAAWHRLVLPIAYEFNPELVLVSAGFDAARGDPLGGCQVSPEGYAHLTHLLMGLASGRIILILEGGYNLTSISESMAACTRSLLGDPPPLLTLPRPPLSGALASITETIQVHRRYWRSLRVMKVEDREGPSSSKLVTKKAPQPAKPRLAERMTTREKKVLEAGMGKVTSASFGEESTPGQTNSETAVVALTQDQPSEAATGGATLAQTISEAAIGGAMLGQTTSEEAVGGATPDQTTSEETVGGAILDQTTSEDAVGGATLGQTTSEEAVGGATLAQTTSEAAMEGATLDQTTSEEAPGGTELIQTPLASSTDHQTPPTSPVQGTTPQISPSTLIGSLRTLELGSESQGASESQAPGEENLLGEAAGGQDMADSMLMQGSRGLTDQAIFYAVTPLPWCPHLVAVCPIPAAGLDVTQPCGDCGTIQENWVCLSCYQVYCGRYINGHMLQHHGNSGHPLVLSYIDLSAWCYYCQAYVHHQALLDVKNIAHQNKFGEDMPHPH
The assay is described as follows: (§1) Inhibition of recombinant human N-terminal GST-tagged HDAC6 (1 to 1215 residues) expressed in Sf9 insect cells using Z-Lys(Ac)-AMC as fluorogenic substrate incubated for 90 mins by microplate reader analysis.

The chains behind the UniProt entries cited, without tags or fusion partners. Where a name states a change or a piece, a line headed by the entry shows the natural chain unless it says otherwise.
UniProt P56524: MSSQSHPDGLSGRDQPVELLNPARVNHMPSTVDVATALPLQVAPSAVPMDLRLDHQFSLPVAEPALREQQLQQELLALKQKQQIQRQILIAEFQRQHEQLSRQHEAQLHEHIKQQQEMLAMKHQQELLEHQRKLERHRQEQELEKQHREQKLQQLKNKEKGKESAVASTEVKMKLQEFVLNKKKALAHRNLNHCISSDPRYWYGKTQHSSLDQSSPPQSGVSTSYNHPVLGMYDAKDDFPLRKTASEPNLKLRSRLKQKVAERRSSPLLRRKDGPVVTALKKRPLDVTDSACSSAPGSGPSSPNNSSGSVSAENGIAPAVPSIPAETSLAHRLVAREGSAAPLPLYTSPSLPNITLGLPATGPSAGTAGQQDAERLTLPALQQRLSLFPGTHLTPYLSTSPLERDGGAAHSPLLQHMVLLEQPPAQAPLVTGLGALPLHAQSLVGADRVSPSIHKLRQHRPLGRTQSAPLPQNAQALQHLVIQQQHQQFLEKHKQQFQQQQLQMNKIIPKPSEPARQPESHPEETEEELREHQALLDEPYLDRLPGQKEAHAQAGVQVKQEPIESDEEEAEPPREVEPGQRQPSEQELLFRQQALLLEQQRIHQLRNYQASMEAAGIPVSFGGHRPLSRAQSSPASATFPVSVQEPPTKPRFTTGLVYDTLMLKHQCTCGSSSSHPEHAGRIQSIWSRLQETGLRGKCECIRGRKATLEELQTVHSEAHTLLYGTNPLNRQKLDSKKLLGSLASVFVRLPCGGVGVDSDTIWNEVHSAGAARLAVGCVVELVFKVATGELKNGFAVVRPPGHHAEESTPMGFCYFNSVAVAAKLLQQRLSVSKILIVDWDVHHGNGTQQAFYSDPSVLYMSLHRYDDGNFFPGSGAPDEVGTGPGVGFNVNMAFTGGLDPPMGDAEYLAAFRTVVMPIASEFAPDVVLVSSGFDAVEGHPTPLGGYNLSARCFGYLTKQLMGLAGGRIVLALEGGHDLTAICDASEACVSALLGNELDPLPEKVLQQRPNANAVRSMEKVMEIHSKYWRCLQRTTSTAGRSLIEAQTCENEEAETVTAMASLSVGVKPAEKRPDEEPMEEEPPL

In assay [2] the target is T2, Protein deacetylase HDAC6 (Homo sapiens, UniProt Q9UBN7).
T2 sequence (Q9UBN7 whole entry): T1 sequence (whole entry)
Described as §1.

Another assay addresses Histone deacetylase 4 (Homo sapiens, UniProt P56524). The assay is described as follows: Inhibition of recombinant human N-terminal GST-tagged/C-terminal His-tagged HDAC4 (627 to 1084 residues) expressed in baculovirus infected Sf9 insect cells using Boc-Lys (trifluoroacetyl)-AMC as substrate incubated for 90 mins by microplate reader analysis. The method in brief:
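HDAC4 enzyme in Tris-HCl pH 8.0 buffer with NaCl, KCl, MgCl₂ and 0.1 mg/mL BSA, max. 1% DMSO. 3-fold compound serial dilutions with Boc-Lys(Tfa)-AMC (42.86 μM solution) at 37 °C for 90 min. Trypsin (1.0 mg/mL) added, 30 min. […] Three-parameter log(inhibitor) fit. Duplicates, ≥2 experiments, mean ± SD. SI = IC50 HDAC4/IC50 HDAC6.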

As a reminder, the IC50 is the concentration needed to halve the response being measured.

Regarding `CN(C)c1ccc(C(=O)N(CC(=O)NCc2ccccc2)Cc2ccc(C(=O)NO)cc2F)cc1`, the IC5 in assay [1] was 0.01 µM. Moreover, the IC50 amounted to 10 nM in assay [2] and 1880 nM at Histone deacetylase 4.
